Measurements as given in publication PMC11508426.

Legend:
Test in all cases: fluorescence microscopy of F-actin held on a fragment-coated flow cell surface; C0-C2 fragment (0-2000 nM loading concentration) added to the nitrocellulose-coated flow cell surface for 2 min, BSA for 5 min, washed three times with AB buffer; fluorescently labeled F-actin (10 nM) added for 5 min; total intensity of filament images, 10 fields of view, at least three flow cells; Hill equation fit
[1] = molecular target: D75N C0-C1-m-C2 fragment of human cardiac myosin-binding protein C (cMyBP-C) (human) (UniProt Q14896)
[2] = molecular target: WT C0-C1-m-C2 fragment of human cardiac myosin-binding protein C (cMyBP-C) (human) (UniProt Q14896)
[3] = molecular target: P161S C0-C1-m-C2 fragment of human cardiac myosin-binding protein C (cMyBP-C) (human) (UniProt Q14896)

EC50 [1]: 566 nM | EC50 [2]: 299 nM | EC50 [3]: 277 nM
Substance: rabbit skeletal actin, filamentous (F-actin) (from UniProt P68135 1-377) (natural protein)
